These results are taken from ChEMBL document CHEMBL1147168, “Quinuclidines as selective agonists for alpha-7 nicotinic acetylcholine receptors” (Bioorg Med Chem Lett, 2007).

By UniProt entry, the sequences of proteins in these tests, tags left out.
UniProt P36544, whole entry: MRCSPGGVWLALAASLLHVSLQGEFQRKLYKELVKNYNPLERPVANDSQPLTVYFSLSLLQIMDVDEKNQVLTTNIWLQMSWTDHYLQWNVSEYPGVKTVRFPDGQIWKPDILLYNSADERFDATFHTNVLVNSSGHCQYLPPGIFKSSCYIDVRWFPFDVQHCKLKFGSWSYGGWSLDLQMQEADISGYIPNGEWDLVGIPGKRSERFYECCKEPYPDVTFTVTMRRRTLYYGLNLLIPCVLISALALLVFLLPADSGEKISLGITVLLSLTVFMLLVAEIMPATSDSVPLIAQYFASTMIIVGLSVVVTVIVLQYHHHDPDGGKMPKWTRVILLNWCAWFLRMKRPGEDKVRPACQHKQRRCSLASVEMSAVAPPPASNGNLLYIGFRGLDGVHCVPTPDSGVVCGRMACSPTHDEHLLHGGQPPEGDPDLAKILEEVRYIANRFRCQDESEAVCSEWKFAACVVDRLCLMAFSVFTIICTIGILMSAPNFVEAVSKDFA

In the experiment the target is Neuronal acetylcholine receptor subunit alpha-7 (Homo sapiens, UniProt P36544). In words: Agonist activity at nAChR alpha-7 expressed in Xenopus oocytes. In kind it is functional, cell-based, Oocyte.

Regarding `C[N+]12CCC(CC1)CC2`, the EC50 (usually the midpoint of the concentration-response curve) worked out at 40 µM.
